Patent US20100286136A1, “DIHYDRONAPHTHYRIDINYL AND RELATED COMPOUNDS FOR USE IN TREATING OPHTHALMOLOGICAL DISORDERS” (priority 2009, published 2010)

Target: T1, CCR2b (Homo sapiens, UniProt P41597)
T1 construct: host or cells: AequoScreen CCR2b cells
T1 sequence (P41597 1-360 isoform P41597-2): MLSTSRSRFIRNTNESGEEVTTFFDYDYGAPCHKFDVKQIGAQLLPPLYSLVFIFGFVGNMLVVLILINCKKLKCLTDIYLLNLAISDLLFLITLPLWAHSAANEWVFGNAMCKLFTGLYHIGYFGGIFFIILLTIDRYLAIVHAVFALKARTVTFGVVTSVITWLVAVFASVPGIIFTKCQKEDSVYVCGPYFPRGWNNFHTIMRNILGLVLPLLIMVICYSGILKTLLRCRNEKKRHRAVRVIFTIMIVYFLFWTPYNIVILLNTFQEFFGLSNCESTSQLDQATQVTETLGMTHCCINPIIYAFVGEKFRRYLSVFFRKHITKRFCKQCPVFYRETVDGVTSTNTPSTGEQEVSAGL
Experiment: AequoScreen CCR2b calcium flux assay, antagonist mode against reference agonist MCP-1
Assay type: cell-based
Settings: AequoScreen CCR2b (FAST-060A) cells; inhibition of reference agonist MCP-1 at its EC80; read-out: IC50 (μM) Ca^++flux
Protocol: The biological activity of the compounds described herein can be evaluated using assays known in the art, such as the AequoScreen™ assay.
AequoScreen™ CCR2b (FAST-060A) cells grown to mid-log phase in culture media without antibiotics are detached with PBS-EDTA, centrifuged and resuspended in assay buffer (DMEM/HAM's F12 with HEPES, without phenol red+0.1% BSA protease free) at a concentration of 1×10^6 cells/mL. Cells are incubated at room temperature for at least 4 hours with coelenterazine h. Dose response curves are performed before testing. The reference agonist is MCP-1.
For agonist testing, 50 μL of cell suspension is mixed with 50 μL of test compound in a 96-well plate. The resulting emission of light is recorded using a Hamamatsu Functional Drug Screening System 6000 (FDSS 6000).
Following an incubation of 15 minutes after the first injection, 100 μL of the resulting cell suspension containing the test compound is mixed with 100 μL of the reference agonist in the 96 well test plate. The resulting emission of light is recorded using the same luminometer as for agonist testing.
Agonist activity of a test compound can be expressed as a percentage of the activity of the reference agonist at its EC100 concentration. Antagonist activity of a test compound can be expressed as a percentage of the inhibition of reference agonist activity at its EC80 concentration.

6-((3-(Methoxymethyl)-3-(3-(trifluoromethyl)-5,6,7,8-tetrahydro-1,6-naphthyridine-6-carbonyl)pyrrolidin-1-yl)methyl)-3,5-dimethylbenzo[d]oxazol-2(3H)-one [Example 44]
IC50: < 0.2 µM
